Source: patent publication US10800786B2, “Bicyclic compounds as ATX inhibitors” (Hoffmann-La Roche Inc., priority 2015, dated 2020)

Biological target: ATX (human His-tagged) (Homo sapiens (Human), UniProt Q13822)
Assay: Human ATX enzyme inhibition assay (fluorescence quenching, MR121 substrate)
Type: biochemical
Settings: 30 nM ATX, 30° C., pH 8.0
Protocol: Human Atx Enzyme Inhibition Assay
Assay working solutions were made as follows:
Assay buffer (50 mM Tris-HCl, 140 mM NaCl, 5 mM KCl, 1 mM CaCl2, 1 mM MgCl2, 0.01% Triton-X-100, pH 8.0;
MR121 substrate solution: MR121 substrate stock solution (800 μM MR121 substrate in DMSO), diluted to 2-5× final concentration in assay buffer.
10 μL of MR121 substrate solution was added ([…] final concentration), mixed 30 times and then incubated for 15 minutes at 30° C.

| Structure (SMILES) | IC50 [nM] |
| --- | --- |
| O=C(c1cc(OCC2CCOCC2)nc(C2CC2)c1)N1CC2=C(C1)CN(C(=O)N1CCc3c(O)noc3C1)C2 [Example 2.01, [2-cyclopropyl-6-(oxan-4-ylmethoxy)pyridin-4-yl]-[5-(3-hydroxy-5,7-dihydro-4H-[1,2]oxazolo[5,4-c]pyridine-6-carbonyl)-1,3,4,6-tetrahydropyrrolo[3,4-c]pyrrol-2-yl]methanone] | 1 |
| CC(C)(C)C(=O)Nc1cc(Cl)cnc1COC(=O)N1CC2=C(C1)CN(C(=O)N1CCc3c(O)noc3C1)C2 [Example 2.03, [5-chloro-3-(2,2-dimethylpropanoyl amino)pyridin-2-yl]methyl 2-(3-hydroxy-5,7-dihydro-4H-[1,2]oxazolo[5,4-c]pyridine-6-carbonyl)-1,3,4,6-tetrahydropyrrolo[3,4-c]pyrrole-5-carboxylate] | 128 |
| CC(C)(C)C(=O)Nc1cc(Cl)c(Cl)nc1COC(=O)N1CC2=C(C1)CN(C(=O)N1CCc3c(O)noc3C1)C2 [Example 2.05, [5,6-dichloro-3-(2,2-dimethylpropanoylamino)pyridin-2-yl]methyl 2-(3-hydroxy-5,7-dihydro-4H-[1,2]oxazolo[5,4-c]pyridine-6-carbonyl)-1,3,4,6-tetrahydropyrrolo[3,4-c]pyrrole-5-carboxylate] | 7 |
| CC(C)(C)C(=O)Nc1cc(C(F)(F)F)cnc1COC(=O)N1CC2=C(C1)CN(C(=O)N1CCc3c(O)noc3C1)C2 [Example 2.06, [3-(2,2-dimethylpropanoylamino)-5-(trifluoromethyl)pyridin-2-yl]methyl 2-(3-hydroxy-5,7-dihydro-4H-[1,2]oxazolo[5,4-c]pyridine-6-carbonyl)-1,3,4,6-tetrahydropyrrolo[3,4-c]pyrrole-5-carboxylate] | 5 |
| O=C(c1cc(OCC(F)(F)F)nc(C2CC2)c1)N1CC2=C(C1)CN(C(=O)N1CCc3c(O)noc3C1)C2 [Example 2.09, [2-cyclopropyl-6-(2,2,2-trifluoroethoxy)pyridin-4-yl]-[5-(3-hydroxy-5,7-dihydro-4H-[1,2]oxazolo[5,4-c]pyridine-6-carbonyl)-1,3,4,6-tetrahydropyrrolo[3,4-c]pyrrol-2-yl]methanone] | 10 |
| Cc1nnn(Cc2cc(C(F)(F)F)ccc2CCC(=O)N2CC3=C(C2)CN(C(=O)N2CCc4c(O)noc4C2)C3)n1 [Example 2.10, 1-[5-(3-hydroxy-5,7-dihydro-4H-[1,2]oxazolo[5,4-c]pyridine-6-carbonyl)-1,3,4,6-tetrahydropyrrolo[3,4-c]pyrrol-2-yl]-3-[2-[(5-methyltetrazol-2-yl)methyl]-4-(trifluoromethyl)phenyl]propan-1-one] | 9 |
| O=C(c1cnc(OCC(F)(F)F)c(C2CC2)c1)N1CC2=C(C1)CN(C(=O)N1CCc3c(O)noc3C1)C2 [Example 2.11, [5-cyclopropyl-6-(2,2,2-trifluoroethoxy)pyridin-3-yl]-[5-(3-hydroxy-5,7-dihydro-4H-[1,2]oxazolo[5,4-c]pyridine-6-carbonyl)-1,3,4,6-tetrahydropyrrolo[3,4-c]pyrrol-2-yl]methanone] | 12 |
| O=C(c1cc(OCC2CCCCC2)nc(C2CC2)c1)N1CC2=C(C1)CN(C(=O)N1CCc3c(O)noc3C1)C2 [Example 2.15, [2-(cyclohexylmethoxy)-6-cyclopropylpyridin-4-yl]-[5-(3-hydroxy-5,7-dihydro-4H-[1,2]oxazolo[5,4-c]pyridine-6-carbonyl)-1,3,4,6-tetrahydropyrrolo[3,4-c]pyrrol-2-yl]methanone] | 1 |
| O=C(c1cc(OCC2CCOCC2)nc(C2CC2)c1)N1CC2=C(CC(C(=O)N3CCc4c(O)noc4C3)C2)C1 [Example 7.00, [2-Cyclopropyl-6-(oxan-4-ylmethoxy)pyridin-4-yl]-[5-(3-hydroxy-5,7-dihydro-4H-[1,2]oxazolo[5,4-c]pyridine-6-carbonyl)-3,4,5,6-tetrahydro-1H-cyclopenta[c]pyrrol-2-yl]methanone] | 5 |
